The text below walks through data of ChEMBL document CHEMBL3880422, “C-terminal modified oxamyl dipeptides as inhibitors of the ICE/ced-3 family of cysteine proteases” (2007).

Sequences of proteins named here, by UniProt entry; tags and fusion partners are left off. A change or cut given only in a name is not applied to a line headed by its entry.
UniProt Q14790: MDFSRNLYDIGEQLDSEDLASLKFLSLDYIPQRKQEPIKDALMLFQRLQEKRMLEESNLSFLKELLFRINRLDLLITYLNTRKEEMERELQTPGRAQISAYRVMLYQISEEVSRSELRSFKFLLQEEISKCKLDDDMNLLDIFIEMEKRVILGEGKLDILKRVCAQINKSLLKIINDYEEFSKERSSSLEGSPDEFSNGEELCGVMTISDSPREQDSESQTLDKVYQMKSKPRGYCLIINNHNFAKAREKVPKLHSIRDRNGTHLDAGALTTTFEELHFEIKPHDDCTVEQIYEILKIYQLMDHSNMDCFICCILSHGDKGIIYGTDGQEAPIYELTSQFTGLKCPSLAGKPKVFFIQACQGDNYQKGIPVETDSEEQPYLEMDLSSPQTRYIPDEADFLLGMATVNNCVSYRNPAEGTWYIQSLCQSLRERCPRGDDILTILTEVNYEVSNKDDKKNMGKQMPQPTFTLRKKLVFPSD

One assay deals with T1, Caspase-3 (Homo sapiens) (UniProt P42574).
T1 sequence (whole entry): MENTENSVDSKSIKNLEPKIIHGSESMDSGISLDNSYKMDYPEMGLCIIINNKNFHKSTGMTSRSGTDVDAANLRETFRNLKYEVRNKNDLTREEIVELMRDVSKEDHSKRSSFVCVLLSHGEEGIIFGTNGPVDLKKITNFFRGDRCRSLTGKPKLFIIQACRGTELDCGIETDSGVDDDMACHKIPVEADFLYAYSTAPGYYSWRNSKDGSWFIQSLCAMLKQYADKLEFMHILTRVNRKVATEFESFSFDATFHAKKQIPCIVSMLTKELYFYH
Put plainly: Inhibition of recombinant CPP32 (unknown origin) assessed as ratio of irreversible rate constant K3 to dissociation constant of the reversible binding step Ki pre-incubated for 60 mins with Acetyl-Tyr-Val-Ala-Asp-amino-4-methylcoumarin substrate followed by enzyme addition by fluorescence based assay.

The next assay addresses Caspase-8 (Homo sapiens) (UniProt Q14790). Put plainly: Inhibition of recombinant MCH5 (unknown origin) assessed as ratio of irreversible rate constant K3 to dissociation constant of the reversible binding step Ki pre-incubated for 60 mins with Acetyl-Tyr-Val-Ala-Asp-amino-4-methylcoumarin substrate followed by enzyme addition by fluorescence based assay.
The next assay deals with T2, Caspase-1 (Mus musculus) (UniProt P29452).
T2 sequence (whole entry): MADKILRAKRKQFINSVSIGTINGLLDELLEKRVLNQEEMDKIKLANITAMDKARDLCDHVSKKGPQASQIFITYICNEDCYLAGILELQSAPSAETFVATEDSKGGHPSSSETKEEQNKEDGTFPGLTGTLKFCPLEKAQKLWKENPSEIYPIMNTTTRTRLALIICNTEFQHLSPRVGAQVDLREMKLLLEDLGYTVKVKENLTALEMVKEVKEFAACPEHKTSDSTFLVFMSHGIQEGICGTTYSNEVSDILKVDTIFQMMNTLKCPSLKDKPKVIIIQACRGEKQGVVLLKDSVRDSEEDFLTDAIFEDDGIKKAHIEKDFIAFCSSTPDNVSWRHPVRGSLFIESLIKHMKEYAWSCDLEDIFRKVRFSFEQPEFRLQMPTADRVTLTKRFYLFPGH
Put plainly: Inhibition of mouse recombinant ICE assessed as ratio of irreversible rate constant K3 to dissociation constant of the reversible binding step Ki pre-incubated for 60 mins with Acetyl-Tyr-Val-Ala-Asp-amino-4-methylcoumarin substrate followed by enzyme addition by fluorescence based assay.

Another assay concerns the target T3, Caspase-6 (Homo sapiens) (UniProt P55212).
T3 sequence (whole entry): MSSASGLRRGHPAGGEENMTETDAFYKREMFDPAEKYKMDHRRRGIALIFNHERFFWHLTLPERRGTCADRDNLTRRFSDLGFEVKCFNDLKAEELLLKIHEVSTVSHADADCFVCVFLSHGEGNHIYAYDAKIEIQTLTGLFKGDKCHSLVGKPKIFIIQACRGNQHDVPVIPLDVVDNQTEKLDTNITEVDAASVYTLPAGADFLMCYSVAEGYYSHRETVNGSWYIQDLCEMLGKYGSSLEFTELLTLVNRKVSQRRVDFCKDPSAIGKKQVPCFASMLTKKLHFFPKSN
As to the kind of experiment: Inhibition of recombinant MCH2 (unknown origin) assessed as ratio of irreversible rate constant K3 to dissociation constant of the reversible binding step Ki pre-incubated for 60 mins with Acetyl-Tyr-Val-Ala-Asp-amino-4-methylcoumarin substrate followed by enzyme addition by fluorescence based assay.

As for `CC(C)[C@H](NC(=O)C(=O)Nc1cccc2ccccc12)C(=O)N[C@@H](CC(=O)O)C(=O)COc1c(F)cc(F)cc1F`, the Ratio on Caspase-3 (Homo sapiens) was 340000 M⁻¹ s⁻¹; on Caspase-8 (Homo sapiens), 189000 M⁻¹ s⁻¹.

For the compound `CC(C)[C@H](NC(=O)C(=O)Nc1cccc2ccccc12)C(=O)N[C@@H](CC(=O)O)C(=O)COc1ccnc(C(F)(F)F)n1`, the Ratio on Caspase-1 (Mus musculus) came out at 1.07e+06 M⁻¹ s⁻¹; on Caspase-3 (Homo sapiens) it was 294000 M⁻¹ s⁻¹; on Caspase-6 (Homo sapiens), 13300 M⁻¹ s⁻¹; on Caspase-8 (Homo sapiens), 60300 M⁻¹ s⁻¹.

For the compound `CC(C)[C@H](NC(=O)C(=O)Nc1cccc2ccccc12)C(=O)N[C@@H](CC(=O)O)C(=O)COP(C)(=O)c1ccccc1` (stereo partly specified), the Ratio at Caspase-1 (Mus musculus) amounted to 1.4e+06 M⁻¹ s⁻¹; at Caspase-3 (Homo sapiens), 529000 M⁻¹ s⁻¹; at Caspase-6 (Homo sapiens), 165000 M⁻¹ s⁻¹; at Caspase-8 (Homo sapiens) it was 847000 M⁻¹ s⁻¹.

For `CC(C)[C@H](NC(=O)C(=O)Nc1cccc2ccccc12)C(=O)N[C@@H](CC(=O)O)C(=O)COC(=O)c1c(Cl)cccc1Cl`, the results for the Ratio on Caspase-3 (Homo sapiens) and on Caspase-8 (Homo sapiens) were 740000 M⁻¹ s⁻¹ and 119000 M⁻¹ s⁻¹, respectively.

For the compound `CC(C)[C@H](NC(=O)C(=O)Nc1cccc2ccccc12)C(=O)N[C@@H](CC(=O)O)C(=O)COP(=O)(c1ccccc1)c1ccccc1`, the Ratio is 2.95e+06 M⁻¹ s⁻¹ on Caspase-1 (Mus musculus), 876000 M⁻¹ s⁻¹ on Caspase-3 (Homo sapiens), 222000 M⁻¹ s⁻¹ at Caspase-6 (Homo sapiens) and 2.45e+06 M⁻¹ s⁻¹ on Caspase-8 (Homo sapiens).

As to `CC(C)[C@H](NC(=O)C(=O)Nc1cnccn1)C(=O)N[C@@H](CC(=O)O)C(=O)COc1c(F)c(F)cc(F)c1F`, the Ratio on Caspase-3 (Homo sapiens) amounted to 149000 M⁻¹ s⁻¹.

For `COC(=O)c1cc(OCC(=O)[C@H](CC(=O)O)NC(=O)[C@@H](NC(=O)C(=O)Nc2cccc3ccccc23)C(C)C)no1`, the Ratio is 532000 M⁻¹ s⁻¹ on Caspase-1 (Mus musculus), 264000 M⁻¹ s⁻¹ on Caspase-3 (Homo sapiens), 12800 M⁻¹ s⁻¹ on Caspase-6 (Homo sapiens) and 88800 M⁻¹ s⁻¹ on Caspase-8 (Homo sapiens).
